The record followed here is patent US20210101932A1 (Bicycle, published 2021).

Protein sequences, listed by entry. Tags and fused reporters are not part of them. Residues count along the entry.
UniProt Q9NZQ7, 19-290: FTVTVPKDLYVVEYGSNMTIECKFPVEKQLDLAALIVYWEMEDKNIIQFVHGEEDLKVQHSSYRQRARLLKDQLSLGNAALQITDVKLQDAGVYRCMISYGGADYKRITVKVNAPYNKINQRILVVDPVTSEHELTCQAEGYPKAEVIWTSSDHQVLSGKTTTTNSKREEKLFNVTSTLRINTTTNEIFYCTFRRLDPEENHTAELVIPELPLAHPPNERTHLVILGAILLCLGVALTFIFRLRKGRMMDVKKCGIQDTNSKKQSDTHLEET

A word on the Kd: it is the free concentration of one partner at which half of the binding sites on the other are occupied at equilibrium, for simple one-to-one binding. Usually Ki stands for the equilibrium dissociation constant of an inhibitor or competing ligand from its target.

Test [1] deals with Recombinant mouse PD-L1 (R&D systems), biotinylated (mouse) (UniProt Q9EP73). Briefly: SPR (Biacore), biotinylated mouse PD-L1 on streptavidin chip. A general note: SPR reads the build-up and loss of mass on a sensor chip optically.
In test [2] the target is human PD-L1 overexpressed on CHO-K1 cells (human) (UniProt Q9NZQ7). Briefly: cell-based or functional assay.
The target of test [3] is T1, Recombinant human PD-L1 (Sino Biologicals or R&D systems), biotinylated (human, UniProt Q9NZQ7 19-238, limits assumed, biotinylated with EZ-Link Sulfo-NHS-LC-LC-Biotin).
T1 construct: captured on a streptavidin CM5 chip for SPR; also called human PD-L1 protein; Biotinylated PD-L1
Briefly: SPR (Biacore), biotinylated PD-L1 on streptavidin chip. As to the method:
Biacore experiments were performed to determine kₐ) (M⁻¹s⁻¹), kd (s⁻¹), KD (nM) values of monomeric peptides binding to human PD-L1 protein. […] The protein was desalted to remove uncoupled biotin using spin columns into PBS. For analysis of binding, a Biacore 3000 instrument was used utilizing a CM5 sensor chip (GE Healthcare). Streptavidin was immobilized on the chip using standard amine-coupling chemistry at 25° C. with HBS-N (10 mM HEPES, 0.15 M NaCl, pH 7.4) as the running buffer. The carboxymethyl dextran surface was activated with a 12 min injection of a 1:1 ratio of 0.4 M 1-ethyl-3-(3-dimethylaminopropyl) carbodiimide hydrochloride (EDC)/0.1 M N-hydroxy succinimide (NHS) at a flow rate of 10 μl/min. For capture of streptavidin, protein was diluted to 0.1 mg/ml in 10 mM sodium acetate (pH 4.5) and captured by injecting 70 μl onto the activated chip surface. Residual activated groups were blocked with a 7 min injection of 1 M ethanolamine (pH 8.5). Biotinylated PD-L1 stock was diluted 1:100 in HBS-N and captured on one flow cell at 5 μl/min to a level of 1000-1300 RU. Buffer was changed to PBS/0.05% Tween 20 and a dilution series of the peptides was prepared in this buffer with a final DMSO concentration of 0.5%. The top concentrations were 200 nM or 500 nM with 6 2-fold dilutions. The SPR analysis was run at 25° C. at a flow rate of Flow rate 50 μl/min with 60 seconds association and 400 seconds disassociation. Data were corrected for DMSO excluded volume effects. All data were double-referenced for blank injections and reference surface using standard processing procedures and data processing and kinetic fitting were performed using Scrubber software, version 2.0c (Biologic Software). Data were fitted using mass transport model allowing for mass transport effects where appropriate.

The target in test [4] is T2, human PD-L1 (human, UniProt Q9NZQ7 19-238, limits assumed).
T2 construct: also called hPD-L1; Programmed cell death 1 ligand 1
Briefly: FP competition vs FI-G-Sar5-…. As for the experimental part: Peptides were diluted to an appropriate concentration in assay buffer as described in the direct binding assay with a maximum of 5% DMSO, then serially diluted 1 in 2. […] Measurements were conducted as for the direct binding assay, however the gain was determined prior to the first measurement. Data analysis was in Systat Sigmaplot version 12.0 where the mP values were fit to a user defined cubic equation to generate a Ki value: […]

The target in test [5] is T2, human PD-L1. Briefly: FP, Table 1 'Human Direct Binding Assay'. As for the experimental part: Measurements were conducted on a BMG PHERAstar FS equipped with an “FP 485 520 520” optic module which excites at 485 nm and detects parallel and perpendicular emission at 520 nm. The PHERAstar FS was set at 25° C. with 200 flashes per well and a positioning delay of 0.1 second, with each well measured at 5 to 10 minute intervals for 60 minutes. The gain used for analysis was determined for each tracer at the end of the 60 minutes where there was no protein in the well. […] “Lig” was a defined value of the concentration of tracer used.

The target of test [6] is human PD-L1 overexpressed on CHO-K1 cells (human, UniProt Q9NZQ7 19-290). Briefly: cell-based or functional assay.

As to BCY8938 (peptide), the equilibrium dissociation constant (Kd) in test [1] came out at 117 nM.

Regarding “PD-L1 monoclonal antibody (clone MIH1, Invitrogen catalog #16598382)”, the EC50 (nM), PD-1/PD-L1 Blockade Bioassay (NFAT-luciferase fold induction in PD-1 Jurkat cells) in test [2] amounted to 2.46 nM.

Turning to SDKCSAGWLTMCQKLHLCA (N-terminal [Ac]; Ci, Cii, Ciii cyclised on TATA) [BCY10075], the Kd in test [3] stood at 28.6 nM.

On to ACSESWSAMCASLGLCA (Ci, Cii, Ciii cyclised on TATA, also called 73-14-04-N001) [BCY531], for which the Ki with human PD-L1 [4] amounted to 118 nM. In the test with human PD-L1 [5], this molecule registered a dissociation constant Kd of 311 nM.

In the case of SDKCSAGWLTMCKQLNLCPS (N-terminal [Ac]; C-terminal -COOH; Ci, Cii, Ciii cyclised on TATA) [BCY10936], the dissociation constant (Kd) in test [3] is 13 nM.

Take CSAGWLTMCKQLNLCPSH (N-terminal [Ac] on Ci; Ci, Cii, Ciii cyclised on TATA) [BCY10942]: the Kd in test [3] came out at 24.1 nM.

Turning to SDKCSAGWLTMCKQLNLCPSH (N-terminal [Ac]; Ci, Cii, Ciii cyclised on TATA) [BCY10467], the Kd in test [3] is 3.1 nM. Besides, the “EC50 (nM), PD-1/PD-L1 Blockade Bioassay (NFAT-luciferase fold induction in PD-1 Jurkat cells)” value in test [6] was found to be 196 nM.

In the case of SDKCSAGWLTMCQKLHLC (N-terminal Ac; Ci, Cii, Ciii cyclised on TATA) [BCY11832], the Kd in test [3] was determined as 68.4 nM.

For the molecule SEKCSAGWLTMCQKLHLC (N-terminal [Ac]; Ci, Cii, Ciii cyclised on TATA) [BCY10951], the Kd in test [3] is 7.28 nM.

Turning to SDKCSAGWLTMCEKLHLC (N-terminal [Ac]; Ci, Cii, Ciii cyclised on TATA) [BCY10949], the Kd in test [3] was found to be 18.7 nM.

Turning to SDKCSAGWLTMCQRLHLC (N-terminal [Ac]; Ci, Cii, Ciii cyclised on TATA) [BCY10078], in test [3], the Kd stood at 12.2 nM.

Regarding SDRCSAGWLTMCQKLHLC (N-terminal [Ac]; Ci, Cii, Ciii cyclised on TATA) [BCY10076], the Kd in test [3] was 14.5 nM.

Turning to SDKCSAEWLTMCQKLHLC (N-terminal [Ac]; Ci, Cii, Ciii cyclised on TATA) [BCY10947], in test [3], the Kd was 31.1 nM.

In turn, ACSASWSNMCVELGLCA (Ci, Cii, Ciii cyclised on TATA, also called 73-14-02-N001) [BCY529] came in with a Ki with human PD-L1 [4] of 201 nM. For the same molecule, the Kd in test [3] stood at 442 nM; with human PD-L1 [5], 356 nM.

Regarding SDKCSAGWLTMCKQLNLCP (N-terminal [Ac]; Ci, Cii, Ciii cyclised on TATA) [BCY10935], the Kd in test [3] amounted to 14.9 nM.

In the test with human PD-L1 [4], ACSESWSNMCVSLGLCA (Ci, Cii, Ciii cyclised on TATA, also called 73-14-00-N002) [BCY527] had a Ki of 440 nM. Further, the figures for the Kd (in test [3]; in the test with human PD-L1 [5]) were 933 nM and 494 nM, respectively.

Consider ACSESWSNMCKSLGLCA (Ci, Cii, Ciii cyclised on TATA, also called 73-14-05-N001) [BCY532], for which the Ki with human PD-L1 [4] turned out to be 243 nM. Further, in the test with human PD-L1 [5], binding was put at a Kd of 176 nM.

Consider SDKCSAGWLTMCKQLNLCPSH (N-terminal [Ac]; C-terminal -COOH; Ci, Cii, Ciii cyclised on TATA) [BCY10939], for which the Kd in test [3] is 3.39 nM. In addition, the “EC50 (nM), PD-1/PD-L1 Blockade Bioassay (NFAT-luciferase fold induction in PD-1 Jurkat cells)” value in test [6] was determined as 211 nM.

Regarding ACSWSWLTMCQKLHLCA (Ci, Cii, Ciii cyclised on TATA, also called 73-07-00-N002) [BCY519], the dissociation constant Kd in test [3] is 60.9 nM.

As for SDKCSAGWLTMCKQLNLCPS (N-terminal [Ac]; Ci, Cii, Ciii cyclised on TATA) [BCY10934], the Kd in test [3] turned out to be 10.9 nM.

Consider SDKCSAGWLTMCKQLNLC (N-terminal [Ac]; C-terminal -COOH; Ci, Cii, Ciii cyclised on TATA) [BCY10938], for which the Kd in test [3] is 12.2 nM.

B1: BCY10051 (peptide)
peptide: SDKCSAGWLTMCQKLHLCA
modifications: N-terminal [Ac]; [dS] = D-Ser at chain position 1; Ci, Cii, Ciii cyclised on TATA
With B1, the Kd in test [3] worked out at 20.7 nM.

Turning to DKCSAGWLTMCKQLNLCPSH (N-terminal [Ac]; Ci, Cii, Ciii cyclised on TATA) [BCY10940], the Kd in test [3] came out at 2.32 nM.

On to KCSAGWLTMCKQLNLCPSH (N-terminal [Ac]; Ci, Cii, Ciii cyclised on TATA) [BCY10941], for which the Kd in test [3] is 3.67 nM.

Regarding SDKCSAGWLTMCKQLNLCP (N-terminal [Ac]; C-terminal -COOH; Ci, Cii, Ciii cyclised on TATA) [BCY10937], in test [3], the Kd stood at 5.03 nM.

With SDKCSAGWLTMCQKLHLCA (Ci, Cii, Ciii cyclised on TATA) [BCY3835], the Kd in test [3] was found to be 30.1 nM.

As for SDKCSAGWLTMCLKLHLCA (Ci, Cii, Ciii cyclised on TATA) [BCY10067], the Kd in test [3] came to 5.51 nM.

For SDKCSAGWLTMCVQLGLCA (Ci, Cii, Ciii cyclised on TATA) [BCY10065], the Kd in test [3] is 34.1 nM.

As for ACSAEWRNMCVQLDLCA (Ci, Cii, Ciii cyclised on TATA, also called 73-14-01-N001) [BCY528], the Ki with human PD-L1 [4] turned out to be 112 nM. Further, the Kd in test [3] came out at 291 nM; in the test with human PD-L1 [5], 162 nM.

Regarding SDKCSAGWLTMCQKLHLCPSH (N-terminal [Ac]; Ci, Cii, Ciii cyclised on TATA) [BCY10943], the dissociation constant Kd in test [3] was determined as 7.76 nM.

Consider SDKCSAGWLTMCLKLHLCPSH (N-terminal Ac; Ci, Cii, Ciii cyclised on TATA) [BCY11830], for which the dissociation constant Kd in test [3] stood at 24.1 nM.
